Results on 3 compounds are retold here after ChEMBL document CHEMBL1131033, “Selective endothelin A receptor antagonists. 4. Discovery and structure-activity relationships of stilbene acid and alcohol derivatives” (J Med Chem, 1998).

Amino acid sequences for entries named in this document (tags omitted).
UniProt P26684, whole entry: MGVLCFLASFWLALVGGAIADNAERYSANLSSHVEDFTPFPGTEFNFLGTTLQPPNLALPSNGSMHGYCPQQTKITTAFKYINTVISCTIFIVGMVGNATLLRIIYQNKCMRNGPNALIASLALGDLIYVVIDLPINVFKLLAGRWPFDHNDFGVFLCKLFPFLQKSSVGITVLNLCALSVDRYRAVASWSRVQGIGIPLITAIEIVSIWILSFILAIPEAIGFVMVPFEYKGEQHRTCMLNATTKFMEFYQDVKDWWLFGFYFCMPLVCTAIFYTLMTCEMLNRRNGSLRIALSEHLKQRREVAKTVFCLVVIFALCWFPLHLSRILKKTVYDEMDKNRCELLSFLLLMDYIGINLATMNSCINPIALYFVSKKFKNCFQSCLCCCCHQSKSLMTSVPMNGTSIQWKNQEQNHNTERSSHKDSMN

This assay has as its target Endothelin-1 receptor (Rattus norvegicus, UniProt P26684). In words: Concentration required to inhibit 50% Et-1 binding to endothelin A receptor in rat A-10 cells. The assay is classed as cell-based, A10. In a few lines:
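Rat aortic smooth muscle A10 cells grown to confluence in DMEM with 10% FBS, harvested, and frozen. Nonspecific binding defined with 500 nM unlabeled ET-1. Bound ligand separated by vacuum filtration and gamma-counted. IC50 from curve fitting, usually in duplicate.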
The IC50 is the concentration that gives 50% inhibition. Lower therefore signals higher potency. `OC/C(=C/c1cccc(OCc2ccccc2)c1)c1ccccc1` showed an IC50 of 20 µM.

Turning to `O=C(O)/C(=C/c1cc(OCc2ccccc2)ccc1[N+](=O)[O-])c1ccccc1F`, the half-maximal inhibitory concentration (IC50) came out at 0.9 µM.

Turning to `O=C(O)CCC(C(=O)c1cccc(OCc2ccccc2)c1)c1ccccc1` (stereo not drawn), the IC50 is 1 µM.
